Molecular target: […]F508-CFTR (Homo sapiens, UniProt P13569, DEL508-508)
Experiment: Assay results of Table 3: ΔF508-CFTR modulation, membrane potential optical assay (assay format not stated)
Conditions: NIH3T3 mouse fibroblasts stably expressing […]F508-CFTR (optical assays)
Text: A. Membrane Potential Optical Methods for Assaying […]F508-CFTR Modulation Properties of Compounds
The optical membrane potential assay utilized voltage-sensitive FRET sensors described by Gonzalez and Tsien (See, Gonzalez, J. E. and R. Y. Tsien (1995) “Voltage sensing by fluorescence resonance energy transfer in single cells” Biophys J 69(4): 1272-80, and Gonzalez, J. E. and R. Y. Tsien (1997) “Improved indicators of cell membrane potential that use fluorescence resonance energy transfer” Chem Biol 4(4): 269-77) in combination with instrumentation for measuring fluorescence changes such as the Voltage/Ion Probe Reader (VIPR) (See, Gonzalez, J. E., K. Oades, et al. (1999) “Cell-based assays and instrumentation for screening ion-channel targets” Drug Discov Today 4(9): 431-439).
These voltage sensitive assays are based on the change in fluorescence resonant energy transfer (FRET) between the membrane-soluble, voltage-sensitive dye, DiSBAC2(3), and a fluorescent phospholipid, CC2-DMPE, which is attached to the outer leaflet of the plasma membrane and acts as a FRET donor. […] The changes in fluorescence emission were monitored using VIPR™ II, which is an integrated liquid handler and fluorescent detector designed to conduct cell-based screens in 96- or 384-well microtiter plates. […]

EC50 (potency range): > 5 µM
SMILES: CC(C)Nc1nc(C(N)=O)cc(-c2ccccc2)n1
Efficacy (efficacy range): ++ (++ corresponds to Efficacy between 100 and 50)
